Target: COX-1 (Homo sapiens, UniProt P23219)
Experiment: Microsomal assay, COX-1
Format: biochemical

The chains behind the UniProt entries cited, without tags or fusion partners. Residues count along the entry.
UniProt P23219, 24-599: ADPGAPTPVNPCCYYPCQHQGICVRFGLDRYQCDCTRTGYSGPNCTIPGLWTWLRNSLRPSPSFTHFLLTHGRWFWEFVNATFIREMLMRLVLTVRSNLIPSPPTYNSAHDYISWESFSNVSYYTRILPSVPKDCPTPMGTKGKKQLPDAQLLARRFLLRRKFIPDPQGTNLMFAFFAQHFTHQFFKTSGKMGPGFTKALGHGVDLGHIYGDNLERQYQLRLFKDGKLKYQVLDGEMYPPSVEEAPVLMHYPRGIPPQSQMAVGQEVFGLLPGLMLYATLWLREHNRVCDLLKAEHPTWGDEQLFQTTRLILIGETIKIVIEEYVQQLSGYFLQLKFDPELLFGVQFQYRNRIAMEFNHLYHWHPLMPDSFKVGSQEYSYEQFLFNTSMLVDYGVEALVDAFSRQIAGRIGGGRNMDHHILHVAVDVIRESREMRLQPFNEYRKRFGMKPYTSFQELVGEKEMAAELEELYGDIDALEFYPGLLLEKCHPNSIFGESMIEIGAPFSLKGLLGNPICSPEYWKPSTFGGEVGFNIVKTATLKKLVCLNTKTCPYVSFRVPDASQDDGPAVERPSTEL

Compound | IC50 [µM]
CS(=O)(=O)c1ccc(-c2cc(C(F)(F)F)nc(OCC3CCCC3)n2)cc1 [Example 9] | 69
CCCCOc1nc(-c2ccc(S(C)(=O)=O)cc2)cc(C(F)(F)F)n1 [Example 10, 2-Butoxy-4-[4-(methylsulfonyl)phenyl]-6-(trifluoromethyl)pyrimidine] | > 30
